Key:
Test in all cases: In Vitro Activity Assay
[1] = target: Tyrosine-protein kinase ABL1 (Homo sapiens, UniProt P00519)
Text: (§1) The in vitro activity of the compounds described herein in inhibiting JAK3 and other kinases were obtained using an INVITROGEN Select Screening assay as known in the art.

Chains of the proteins cited; added tags and fusions are not shown. Lines headed by an entry give the natural chain unless they say otherwise; changes in a name come on top.
UniProt P00519, whole entry: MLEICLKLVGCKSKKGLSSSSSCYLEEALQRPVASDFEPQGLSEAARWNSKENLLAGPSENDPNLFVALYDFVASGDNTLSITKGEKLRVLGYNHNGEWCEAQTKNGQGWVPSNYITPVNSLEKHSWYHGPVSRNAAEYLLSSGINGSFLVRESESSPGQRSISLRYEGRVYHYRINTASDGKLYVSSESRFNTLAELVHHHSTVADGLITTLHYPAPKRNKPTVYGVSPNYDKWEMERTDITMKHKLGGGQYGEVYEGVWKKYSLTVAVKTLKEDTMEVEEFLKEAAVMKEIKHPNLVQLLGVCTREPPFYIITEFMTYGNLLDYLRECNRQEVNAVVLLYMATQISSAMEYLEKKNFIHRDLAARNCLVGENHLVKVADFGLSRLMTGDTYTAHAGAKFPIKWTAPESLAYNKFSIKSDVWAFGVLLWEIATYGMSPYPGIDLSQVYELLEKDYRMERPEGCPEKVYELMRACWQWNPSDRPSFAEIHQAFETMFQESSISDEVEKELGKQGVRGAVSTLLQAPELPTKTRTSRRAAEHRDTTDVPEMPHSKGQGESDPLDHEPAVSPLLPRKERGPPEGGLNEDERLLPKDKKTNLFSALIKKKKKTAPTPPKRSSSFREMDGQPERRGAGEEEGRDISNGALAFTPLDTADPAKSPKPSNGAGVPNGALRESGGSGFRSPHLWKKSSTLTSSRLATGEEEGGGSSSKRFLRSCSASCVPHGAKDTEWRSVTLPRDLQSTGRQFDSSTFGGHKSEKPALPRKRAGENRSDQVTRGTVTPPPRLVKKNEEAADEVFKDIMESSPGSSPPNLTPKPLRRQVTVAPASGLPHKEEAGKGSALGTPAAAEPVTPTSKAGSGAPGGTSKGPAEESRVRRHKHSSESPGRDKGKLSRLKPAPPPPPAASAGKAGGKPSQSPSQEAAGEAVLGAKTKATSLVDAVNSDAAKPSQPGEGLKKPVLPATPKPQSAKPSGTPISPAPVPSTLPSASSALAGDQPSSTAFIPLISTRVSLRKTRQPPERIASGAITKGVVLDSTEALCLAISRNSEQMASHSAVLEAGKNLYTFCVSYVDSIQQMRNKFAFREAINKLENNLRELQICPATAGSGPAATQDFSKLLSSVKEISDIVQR
UniProt O60674: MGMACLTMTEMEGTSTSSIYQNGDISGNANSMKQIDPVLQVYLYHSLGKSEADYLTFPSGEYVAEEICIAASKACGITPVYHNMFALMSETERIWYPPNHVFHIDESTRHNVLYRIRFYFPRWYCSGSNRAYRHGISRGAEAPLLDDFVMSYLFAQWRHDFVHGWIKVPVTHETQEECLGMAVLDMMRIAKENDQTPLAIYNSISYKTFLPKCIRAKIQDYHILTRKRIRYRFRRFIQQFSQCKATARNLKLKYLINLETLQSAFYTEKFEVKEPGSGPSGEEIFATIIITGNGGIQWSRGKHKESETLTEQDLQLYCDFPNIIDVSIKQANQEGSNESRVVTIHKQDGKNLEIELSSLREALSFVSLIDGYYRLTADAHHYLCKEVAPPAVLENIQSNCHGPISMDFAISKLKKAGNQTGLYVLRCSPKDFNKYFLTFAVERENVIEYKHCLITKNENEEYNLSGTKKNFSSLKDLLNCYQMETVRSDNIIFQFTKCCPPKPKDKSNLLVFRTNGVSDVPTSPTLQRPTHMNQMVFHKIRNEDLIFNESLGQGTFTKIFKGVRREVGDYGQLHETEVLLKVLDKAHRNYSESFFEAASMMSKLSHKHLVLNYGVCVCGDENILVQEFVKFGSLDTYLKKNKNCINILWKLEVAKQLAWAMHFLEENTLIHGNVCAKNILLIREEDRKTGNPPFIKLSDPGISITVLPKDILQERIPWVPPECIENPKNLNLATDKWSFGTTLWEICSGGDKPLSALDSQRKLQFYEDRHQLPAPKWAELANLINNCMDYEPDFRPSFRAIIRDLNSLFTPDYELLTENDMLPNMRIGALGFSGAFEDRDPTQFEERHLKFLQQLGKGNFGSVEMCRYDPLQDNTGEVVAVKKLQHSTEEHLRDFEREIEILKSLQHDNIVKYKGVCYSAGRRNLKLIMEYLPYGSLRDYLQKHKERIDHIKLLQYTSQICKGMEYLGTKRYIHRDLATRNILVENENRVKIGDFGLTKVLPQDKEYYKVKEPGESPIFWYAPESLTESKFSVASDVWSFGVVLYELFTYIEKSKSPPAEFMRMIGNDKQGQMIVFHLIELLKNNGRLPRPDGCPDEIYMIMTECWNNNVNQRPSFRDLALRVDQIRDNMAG

[2] = target: Tyrosine-protein kinase JAK2 (Homo sapiens, UniProt O60674)
Text: as §1

[3] = target: T1, Tyrosine-protein kinase JAK3 (Homo sapiens, UniProt P52333)
T1 sequence (P52333 whole entry): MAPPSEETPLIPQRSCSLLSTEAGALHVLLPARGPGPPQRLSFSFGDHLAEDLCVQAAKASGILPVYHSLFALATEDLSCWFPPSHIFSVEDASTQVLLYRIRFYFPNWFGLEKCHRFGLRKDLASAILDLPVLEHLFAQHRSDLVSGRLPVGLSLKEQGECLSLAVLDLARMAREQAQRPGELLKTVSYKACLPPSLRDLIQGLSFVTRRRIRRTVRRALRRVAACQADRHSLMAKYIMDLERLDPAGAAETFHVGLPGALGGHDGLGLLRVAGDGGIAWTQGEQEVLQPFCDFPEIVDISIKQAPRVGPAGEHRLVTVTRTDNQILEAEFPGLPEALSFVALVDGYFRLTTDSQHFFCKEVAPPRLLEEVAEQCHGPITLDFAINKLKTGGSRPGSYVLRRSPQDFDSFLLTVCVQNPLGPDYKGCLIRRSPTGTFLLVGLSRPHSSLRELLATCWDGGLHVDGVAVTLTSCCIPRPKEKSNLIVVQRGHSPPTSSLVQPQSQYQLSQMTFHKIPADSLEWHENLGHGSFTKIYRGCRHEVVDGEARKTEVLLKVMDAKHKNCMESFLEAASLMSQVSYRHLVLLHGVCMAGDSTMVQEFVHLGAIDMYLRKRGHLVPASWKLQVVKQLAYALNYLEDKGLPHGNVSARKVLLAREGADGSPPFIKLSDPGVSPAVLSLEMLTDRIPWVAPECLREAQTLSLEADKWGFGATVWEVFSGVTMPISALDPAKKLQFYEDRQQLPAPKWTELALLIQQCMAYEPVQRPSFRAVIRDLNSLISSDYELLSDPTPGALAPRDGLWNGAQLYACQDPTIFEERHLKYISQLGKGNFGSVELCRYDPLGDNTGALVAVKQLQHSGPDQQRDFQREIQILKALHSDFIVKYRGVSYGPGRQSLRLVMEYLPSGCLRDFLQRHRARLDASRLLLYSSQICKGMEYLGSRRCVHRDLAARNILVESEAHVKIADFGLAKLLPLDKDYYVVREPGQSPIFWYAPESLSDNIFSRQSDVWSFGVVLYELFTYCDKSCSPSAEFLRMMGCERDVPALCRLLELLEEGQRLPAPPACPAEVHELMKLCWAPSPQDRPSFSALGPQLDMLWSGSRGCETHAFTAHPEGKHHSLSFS
Text: as §1

Row | IC50 [1] | IC50 [2] | IC50 [3] | SMILES
1 | 1970 nM | 1370 nM | – | C=CC(=O)Nc1cccc(CNc2nc(Nc3cnn(CCN4CCN(C(=O)CC5[C@H]6C[C@@H]7C[C@@H](C[C@H]5C7)C6)CC4)c3)ncc2Cl)c1 (some centres undefined) [US9862688, Compound 5]
2 | – | – | 482 nM | C=CC(=O)Nc1cccc(CNc2nc(Nc3ccc(N4CCN(CCNC(=O)CC5[C@H]6C[C@@H]7C[C@@H](C[C@H]5C7)C6)CC4)cc3OC)ncc2Cl)c1 (some centres undefined) [US9862688, Compound 1]
3 | – | 3110 nM | – | C=CC(=O)Nc1cccc(CNc2nc(Nc3ccc(N4CCN(CCCNC(=O)CC5[C@H]6C[C@@H]7C[C@@H](C[C@H]5C7)C6)CC4)cc3OC)ncc2Cl)c1 (some centres undefined) [US9862688, Compound 2]

From BindingDB's records for patent US9862688 (Dana-Farber Cancer Institute, 2018)
